Patent publication US11702409B2, “Pyrazolyl derivatives useful as anti-cancer agents” (NOVARTIS AG, priority 2019, dated 2023)

What follows are compounds tested against KRasG12C (M1-K169, biotinylated on the N-terminus) (Homo sapiens (Human), UniProt P01116, G12C) (assay: Covalent competition assay (scintillation proximity assay, competition with radiolabeled covalent probe Compound B)). Settings: read-out: Covalent Competition Assay IC50; in vitro KRASG12C activity; 10 nM KRasG12C:GDP, 25 nM radio-ligand and 475 nM unlabelled ligand, incubated 2 hours.
Assay type: binding

| SMILES | IC50 [nM] |
| --- | --- |
| C=CC(=O)N1CC2(CC(n3nc(-c4ccc5c(cnn5CCN5CC(OC)C5)c4)c(-c4c(Cl)c(C)cc5[nH]ncc45)c3C)C2)C1 [Example 81a] | 110 |
| C=CC(=O)N1CC2(CC(n3nc(-c4ccc5c(cnn5CCN5CC(OC)C5)c4)c(-c4c(Cl)c(C)cc5[nH]ncc45)c3C)C2)C1 [Example 81b] | 2600 |
| C=CC(=O)N1CC2(CC(n3nc(-c4cc(C)n(CCN(C)C)n4)c(-c4c(Cl)c(C)cc5[nH]ncc45)c3C)C2)C1 [Example 93a] | 2100 |
| C=CC(=O)N1CC2(CC(n3nc(-c4cc(C)n(CCN(C)C)n4)c(-c4c(Cl)c(C)cc5[nH]ncc45)c3C)C2)C1 [Example 93b] | 9500 |
